Assay results from patent US6680367B1, “Fluorescent CRF receptor-binding peptides” (Advanced Bioconcept Company, priority 1995, dated 2004).

Biological target: T1, CRF receptors in rat cortex membranes (Rattus norvegicus, UniProt P35353)
T1 construct: from tissue; host or cells: rat cortex membranes
T1 sequence (P35353 24-415): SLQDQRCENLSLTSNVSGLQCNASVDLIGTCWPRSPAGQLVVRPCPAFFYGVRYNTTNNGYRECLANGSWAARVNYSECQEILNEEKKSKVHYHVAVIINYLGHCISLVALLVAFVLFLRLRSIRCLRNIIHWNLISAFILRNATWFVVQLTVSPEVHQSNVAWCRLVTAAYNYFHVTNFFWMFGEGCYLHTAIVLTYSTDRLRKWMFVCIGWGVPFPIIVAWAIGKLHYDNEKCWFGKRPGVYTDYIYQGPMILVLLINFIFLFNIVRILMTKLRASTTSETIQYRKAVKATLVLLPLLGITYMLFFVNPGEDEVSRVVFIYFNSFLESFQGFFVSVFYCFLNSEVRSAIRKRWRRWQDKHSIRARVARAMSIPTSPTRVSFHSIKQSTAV
Experiment: Displacement of 125I labeled Tyr0 CRF (ovine) from CRF receptors on rat cortex membranes
Conditions: read-out: IC50 (concentration at which 50% of the binding is inhibited), displacement of 125I Tyr0 CRF (ovine)
Description: Determination of IC50 for labeled peptides. […] In order to fully dissolve the peptide, the sample was reconstituted in 20 uL DMSO, vortexing well to ensure that all powder was completely dissolved, and then adding 0.48 mL of double distilled water. The stock solution was aliquoted to avoid repeated freezing and thawing of peptide. Unused aliquots were stored at −20° C. (protected from light) for maximum 24 hr.
Data for native and labeled peptides were analyzed by non-linear curve fitting. This included statistical evaluation of fit and calculation of IC50 and Ki values.

CRF (ovine)
IC50: 3.8 nM
